Patent US20240358672A1, “APPLICATION OF GENISTEIN AND ITS PHOSPHATE ESTER DERIVATIVE AND PHARMACEUTICAL COMPOSITION COMPRISING THE SAME” (National Taiwan University, priority 2023, published 2024)

Key:
hiPSC-ECs [1] = assay: Western blot / immunofluorescence of p38 and NF-κB (p65) in hiPSC-ECs; settings: 1 μM BAY11-7082 with 5 μM Δ^9-THC, 48 hours
hiPSC-ECs [2] = assay: qPCR gene expression in hiPSC-ECs; assay type: cell-based, human; settings: 10 μM genistein with 5 μM Δ^9-THC, 48 hours

SMILES: Cc1ccc(S(=O)(=O)/C=C/C#N)cc1 [BAY11-7082]
- Δ^9-THC-mediated phosphorylation of NF-κB (hiPSC-ECs [1]): abrogated

SMILES: O=c1c(-c2ccc(O)cc2)coc2cc(O)cc(O)c12 [genistein]
- expression profile of antioxidant genes suppressed by Δ^9-THC (hiPSC-ECs [2]): ameliorated
